{"source": "PubChem BioAssay AID2094", "about": "(Broad Institute, 2009)", "note": "The entries are a selection whose mix differs from that of the whole data set. Activity calls are given as the source filed them. Rule as the data show it: active = activity change below about -75% (passing the limit was not always enough); inconclusive = no clear call, values can overlap the other calls.", "data": [{"assay": "modulation of AI-2 quorum-sensing luminescence – JMH597 strain, luminescence/OD600 ratio, primary screen (AID 2094)", "details": "Vibrio harveyi JMH597 AI-2 luminescence/OD600 ratio, 9 h; at 7.5 µM; hits give low values; 0 = neutral-control median; strain lacks LuxN and CqsS sensors", "values": [{"smiles": "O=C(NCC1(N2CCCCC2)CCCCC1)c1ccc(F)cc1", "activity change": "inactive: 26.2%"}, {"smiles": "COc1ccc(NC2CCN(CCc3ccccc3)CC2)c(OC)c1", "activity change": "inactive: 15.5%"}, {"smiles": "CCOC(=O)N1CCC(Nc2ccc(F)cc2)CC1", "activity change": "inactive: 3.61%"}, {"smiles": "CCOc1ccc(C)cc1CN(CCCl)CCCl", "activity change": "inactive: 27.6%"}, {"smiles": "CCOC(=O)N1CCC(Nc2cccc(C)c2)CC1", "activity change": "inactive: 19.7%"}, {"smiles": "COc1cc(C(=O)NCC2(N(C)C)CCCCC2)ccc1OC(F)F", "activity change": "inactive: 21.1%"}, {"smiles": "Cc1ccc(OCC(C)C)c(CN(CCCl)CCCl)c1", "activity change": "inactive: -4.1%"}, {"smiles": "O=C(NCC1(N2CCCCC2)CCCCC1)c1ccc(=O)[nH]c1", "activity change": "inactive: 18.5%"}, {"smiles": "O=C(NCC1(N2CCCCC2)CCCCC1)c1cccs1", "activity change": "inactive: 13.7%"}, {"smiles": "COc1ccc(C(=O)NCC2(N3CCCCC3)CCCCC2)cc1", "activity change": "inactive: 14.2%"}, {"smiles": "COc1ccc(C(=O)NCC2(N3CCCCC3)CCCCC2)c(OC)c1OC", "activity change": "inactive: 12%"}, {"smiles": "CC(C)(C)OC(=O)N1CCC(N(C(=O)c2ccccc2)c2ccc(F)cc2)CC1", "activity change": "inactive: 17.4%"}, {"smiles": "CCOC(=O)N1CCC(Nc2ccc(OC)cc2)CC1", "activity change": "inactive: 2.73%"}, {"smiles": "N#CC1(Nc2ccccc2)CCN(Cc2ccccc2)CC1", "activity change": "inactive: 1.15%"}, {"smiles": "O=C(OC1CN2CCC1CC2)C1c2ccccc2Oc2ccccc21", "note": "(stereo not drawn)", "activity change": "inactive: 24.6%"}, {"smiles": "O=C(NCC1(N2CCOCC2)CCCCC1)c1cc2ccccc2o1", "activity change": "inactive: 14.8%"}, {"smiles": "O=C(NCC1(N2CCCCC2)CCCCC1)c1ccc(Cl)nc1", "activity change": "inactive: -5.81%"}, {"smiles": "Cc1cc(C)cc(N(C(=O)c2ccccc2)C2CCN(C(=O)OC(C)(C)C)CC2)c1", "activity change": "inactive: 1.89%"}, {"smiles": "COc1cc(OC)c(C(=O)NCC2(N(C)C)CCCCC2)cc1OC", "activity change": "inactive: 21.2%"}, {"smiles": "COc1ccc(CN(CCCl)CCCl)cc1Cl", "activity change": "inactive: 5.52%"}, {"smiles": "CN(C)c1cccc(C(=O)NCC2(N3CCCCC3)CCCCC2)c1", "activity change": "inactive: 8.17%"}, {"smiles": "CC(C)c1ccc(NC2CCN(C(=O)OC(C)(C)C)CC2)cc1", "activity change": "inactive: 27.6%"}, {"smiles": "CCCOc1ccc(C(=O)NCC2(N(C)C)CCCCC2)cc1OC", "activity change": "inactive: 9.16%"}, {"smiles": "CN1CCC(Nc2cccc(F)c2)CC1", "activity change": "inactive: 3.24%"}, {"smiles": "O=C(NCC1(N2CCCCC2)CCCCC1)c1cccc([N+](=O)[O-])c1", "activity change": "inactive: 12.4%"}, {"smiles": "CCN1CCC(Nc2ccc(Cl)cc2)CC1", "activity change": "inactive: 33%"}, {"smiles": "N#CC1(Nc2ccccc2)CCN(CCc2ccccc2)CC1", "activity change": "inactive: 15.9%"}, {"smiles": "O=C(NCC1(N2CCCCC2)CCCCC1)c1ccc(OC(F)F)cc1", "activity change": "inactive: 23.9%"}, {"smiles": "CN1CCN(CCOC(=O)C(O)(c2ccccc2)c2ccccc2)CC1", "activity change": "inactive: -2.98%"}, {"smiles": "COc1ccc(NC2CCN(C(=O)OC(C)(C)C)CC2)cc1", "activity change": "inactive: 22.1%"}, {"smiles": "COc1cc(C(=O)NCC2(N3CCCCC3)CCCCC2)ccc1OC(F)F", "activity change": "inactive: 11.3%"}, {"smiles": "O=C(NCC1(N2CCOCC2)CCCCC1)c1cc(=O)[nH]c2ccccc12", "activity change": "inactive: 23.4%"}, {"smiles": "O=C(NCC1(N2CCCCC2)CCCCC1)c1cccc(C(F)(F)F)c1", "activity change": "inactive: 36%"}, {"smiles": "CC(C)(C)OC(=O)N1CCC(N(C(=O)c2ccccc2)c2ccc(Cl)cc2)CC1", "activity change": "inactive: -1.2%"}, {"smiles": "N#Cc1ccc(C(=O)NCC2(N3CCCCC3)CCCCC2)cc1", "activity change": "inactive: 41.2%"}, {"smiles": "c1ccc(CN2CCC(Nc3ccccc3)CC2)cc1", "activity change": "inactive: 3.71%"}, {"smiles": "CCCN1CCC(Nc2cc(OC)cc(OC)c2)CC1", "activity change": "inactive: 40.4%"}, {"smiles": "CN(C)C1(CNC(=O)c2cccc(C#N)c2)CCCCC1", "activity change": "inactive: 7.59%"}, {"smiles": "COc1ccc(C(=O)NCC2(N3CCOCC3)CCCCC2)cc1OC", "activity change": "inactive: 12.9%"}, {"smiles": "CCc1cc(C(=O)NCC2(N3CCCCC3)CCCCC2)sc1C", "activity change": "inactive: 33.7%"}, {"smiles": "O=C(OC1CN2CCC1CC2)C1c2ccccc2C=Cc2ccccc21", "note": "(stereo not drawn)", "activity change": "inactive: 18.9%"}, {"smiles": "N/C(=N\\O)c1c(N)no[n+]1[O-]", "activity change": "inactive: 15.3%"}, {"smiles": "CCOC(=O)N1CCC(Nc2ccc(C)cc2)CC1", "activity change": "inactive: 29.9%"}, {"smiles": "CCCOc1ccc(C(=O)NCC2(N(C)C)CCCCC2)cc1", "activity change": "inactive: 17.2%"}, {"smiles": "CC(C)(C)OC(=O)N1CCC(Nc2ccccc2)CC1", "activity change": "inactive: 15.5%"}, {"smiles": "O=C(O)C1(Nc2ccccc2)CCN(Cc2ccccc2)CC1", "activity change": "inactive: 6.57%"}, {"smiles": "CCOc1ncccc1C(=O)NCC1(N2CCOCC2)CCCCC1", "activity change": "inactive: -3.59%"}, {"smiles": "CN1CCC(Nc2ccc(F)c(Cl)c2)CC1", "activity change": "inactive: 22.5%"}, {"smiles": "CCCOc1ccc(C)cc1CN(CCCl)CCCl", "activity change": "inactive: 34.9%"}, {"smiles": "CN1CCC(Nc2ccc(Cl)cc2)CC1", "activity change": "inactive: 24.1%"}, {"smiles": "CCC(CO)(C(=O)OC1CN2CCC1CC2)c1ccccc1", "note": "(stereo not drawn)", "activity change": "inactive: 2.52%"}, {"smiles": "COc1cc(OC)cc(C(=O)NCC2(N3CCOCC3)CCCCC2)c1", "activity change": "inactive: -10.6%"}, {"smiles": "COc1cccc(C(=O)N(c2cc(C)cc(C)c2)C2CCN(C(=O)OC(C)(C)C)CC2)c1", "activity change": "inactive: 9.58%"}, {"smiles": "Cc1ccc(C(=O)NCC2(N3CCCCC3)CCCCC2)o1", "activity change": "inactive: 9.09%"}, {"smiles": "Fc1ccccc1NC1CCN(Cc2ccccc2)CC1", "activity change": "inactive: 0.146%"}, {"smiles": "COc1cc(OC)cc(C(=O)NCC2(N3CCCCC3)CCCCC2)c1", "activity change": "inactive: -8.85%"}, {"smiles": "CN(C)c1ccc(C(=O)NCC2(N3CCCCC3)CCCCC2)cc1", "activity change": "inactive: 12.2%"}, {"smiles": "CCN1CCC(Nc2cccc(F)c2)CC1", "activity change": "inactive: 28.7%"}]}]}
